Experiments:
Type in all cases: cell-based
[1] = biological target: T1, chimeric IGF-I receptor (human IGF-I receptor extracellular domain / mouse G-CSF receptor) in Ba/F3 cell line IGG (Homo sapiens, UniProt P08069); test: Growth response of chimeric IGF-I receptor-expressing Ba/F3 cell line IGG (WST-8); details: 72 hours culture in insulin-free Media B, WST-8 absorbance
T1 construct: from the 1st to the 931st amino acid residues; expressed in transfected cells; host or cells: mouse Ba/F3 cells, clone IGG#06 = IGG
Description: A chimeric receptor cDNA was constructed by linking cDNA fragments encoding the extracellular domain (from the 1st to the 931st amino acid residues; Ullrich, A. et al. (1986) EMBO J., 5, 2503-2512) of human IGF-I receptor, and the transmembrane and intracellular domains (from the 602nd to the 813th amino acid residues; Fukunaga, R. et al. (1990) Cell 61, 341-350) of mouse G-CSF receptor. This construct was inserted downstream of the HEF1α promoter of the mammalian expression vector pCV to construct chimeric receptor-expression vector pCV-cIGF1R. pCV-cIGF1R was linearized with Pvu I (Takara Shuzo), extracted with phenol and chloroform, and purified by ethanol precipitation.
The linearized expression vector was introduced into mouse Ba/F3 cells using an electroporation apparatus (Gene Pulser: Bio Rad). The Ba/F3 cells were washed twice with Dulbecco's PBS (hereinafter referred to as PBS), and then were suspended in PBS to give a cell density of about 1×10^7 cells/mL. 20 μg linearized expression vector DNA was added to 0.8 mL of this suspension, transferred into a cuvette (Bio Rad) for electroporation, and pulsed with a capacitance of 960 μF at 0.33 kV.
After leaving standing for about 10 min at room temperature, the cells treated by electroporation were suspended in 40 mL Media A, and were seeded on four 96-well microtiter plates (flat bottom, Falcon) at 100 μL/well. […]

[2] = biological target: T2, chimeric PDGF receptor (human PDGF receptor β chain / mouse G-CSF receptor) in Ba/F3 cell line PDG#35 (Homo sapiens, UniProt P09619); test: Growth response of chimeric PDGF receptor-expressing Ba/F3 cell line PDG (PDG#35) (WST-8); details: Ba/F3 cell line PDG (PDG#35, FIG. 8), 70 hours culture, WST-8 absorbance
T2 construct: from the 1st to the 531st amino acid residues; expressed in transfected cells; host or cells: mouse Ba/F3 cells, clones PDG#35 (section 1-7) and PDG#10 (section 1-15)
Description: (§1) A chimeric receptor cDNA was constructed by linking cDNA fragments encoding the β chain (from the 1st to the 531st amino acid residues; Gronwald, RGK. et al. (1988) Proc. Natl. Acad. Sci. USA. 85, 3435-3439) of human PDGF receptor, and the transmembrane and intracellular domains (from the 602nd to the 813th amino acid residues; Fukunaga, R. et al. (1990) Cell 61, 341-350) of mouse G-CSF receptor. The cDNA was inserted downstream of the HEF1α promoter of the mammalian expression vector pCV to construct chimeric receptor-expression vector pCV-cPDGFR. pCV-cPDGFR was linearized with Pvu I (Takara Shuzo), extracted with phenol and chloroform, and purified by ethanol precipitation.
The linearized expression gene vector was introduced into mouse Ba/F3 cells using an electroporation apparatus (Gene Pulser: Bio Rad). […]
(§2) The cells were washed twice with Media A, and were suspended in Media A to give a cell density of 5×10^4 cells/mL. […] After the culture, 10 μL/well WST-8 reagent (Cell Count Reagent SF; Nacalai Tesque) was added, and pre-reaction absorbance at a measurement wavelength of 450 nm and a control wavelength of 655 nm was measured using microplate reader (Model 3550, Bio Rad). The plate was incubated for two hours in a CO2 incubator (CO2 concentration, 5%), and post-reaction absorbance was measured as above.

[3] = biological target: T3, chimeric PDGF receptor (human PDGF receptor β chain / mouse G-CSF receptor) in Ba/F3 cell line PDG#10 (Homo sapiens, UniProt P09619); test: Growth response of chimeric PDGF receptor-expressing Ba/F3 cell line PDG (PDG#10) (WST-8); details: Ba/F3 cell line PDG (PDG#10, FIG. 17), 72 hours culture, WST-8 absorbance
T3 construct: from the 1st to the 531st amino acid residues; expressed in transfected cells; host or cells: mouse Ba/F3 cells, clones PDG#35 (section 1-7) and PDG#10 (section 1-15)
Description: as §1, with “R G K.” for “RGK.”, “receptor” for “receptor,”, “cloned” for “inserted”, “EF1α” for “HEF1α”
The linearized expression vector was introduced into mouse Ba/F3 cells using an electroporation apparatus (Gene Pulser: Bio Rad). […]
as §2, with “four” for “two”

Substance: human IGF-I: human insulin-like growth factor I (Genzyme)
- concentration at which an evident growth reaction was observed [1]: ≥ 10 ng/mL

Substance: human PDGF-BB: human platelet-derived growth factor BB (Genzyme)
- concentration at which an evident growth reaction was observed [2]: ≥ 30 ng/mL
- concentration at which an evident growth reaction was observed [3]: ≥ 0.5 ng/mL

— patent US7732133B2, “Screening methods for biologically active ligands” (Chugai Seiyaku Kabushiki Kaisha, priority 2000, dated 2010)
